In PMC11546867:

Test system: CCn1c(=NN=c2sc3cc(S(=O)(=O)O)ccc3n2CC)sc2cc(S(=O)(=O)O)ccc21
Test: purified protein
Settings: 0.25 mM H2O2, 50 mM tartrate pH 3, 30 °C

CgaDyP1 (Coriolopsis gallica)
Km: 140 ± 20 µM | kcat: 2.95 s⁻¹
